“And” between values parts separate entries of the source, which are not always exact repeats. Equal values may be shown once. The list shows a part of the results, in another mix than the full data. Results filed as inconclusive are left out. The source made the active and inactive calls. Unless noted, the call rests on the fitted dose curve; in most records, active means well fitted curve in the direction sought with a large enough effect in the repeat runs; inconclusive means weak or mixed curves; inactive means no such curve, though single readings can be large; an effect the other way counts as inactive or inconclusive.
Assays:
[1] = qHTS assay for small molecule agonists of the p53 signaling pathway - cell viability (AID 651633; calls by dose curve; further: nearly all actives have a fitted effect of over 30% in size); conditions: p53RE-bla HCT-116 viability, ATP luminescence, 16 h
Method in brief: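 Viability counter-read: CellTiter-Glo luminescence (30 min, room temperature) in the same p53RE-bla plates. These plates had been exposed to compounds for 16 h at 37 C.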

[2] = qHTS assay for small molecules that induce genotoxicity in human embryonic kidney cells expressing luciferase-tagged ATAD5 - cell viability (AID 651634; calls by dose curve; further: nearly all actives have a fitted effect of over 25% in size); conditions: HEK293T ATAD5-luc cells viability, CellTiter-Fluor, 15.5 h
Method in brief: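 HEK293T ATAD5-luc cells, 2,000/well; compound 15.5 hr, 37C/5% CO2; CellTiter-Fluor 30 min, 37C; fluorescence read.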

[3] = qHTS assay for small molecule disruptors of the mitochondrial membrane potential - cell viability (AID 720634; calls by dose curve;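 further: human HepG2 liver cancer cells; nearly all actives have a fitted effect of over 20% in size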); conditions: HepG2 viability, ATP luminescence (CellTiter-Glo), 1 h
Source text: U.S. Tox21 Program National Center for Advancing Translational Sciences [NCATS] NIH Chemical Genomics Center [NCGC] U.S. Environmental Protection Agency [EPA] National Institutes of Environmental Health Sciences [NIEHS] National Toxicology Program [NTP] U.S. Food and Drug Administration [FDA] Tox21 Assay Overview: Mitochondrial membrane potential (MMP), one of the parameters for mitochondrial function, is generated by mitochondrial electron transport chain that creates an electrochemical gradient by a series of redox reactions. This gradient drives the synthesis of ATP, a crucial molecule for various cellular processes. Measuring MMP in living cells is commonly used to assess the effect of chemicals on mitochondrial function; decreases in MMP can be detected using lipophilic cationic fluorescent dyes. […] The dye accumulates in the mitochondria of healthy cells as aggregates, with red fluorescence. The mitochondrial potential decreases and the dye could not accumulate in the mitochondria and remains in the cytoplasm in monomers, with green fluorescence. In addition to the mitochondrial potential assay, these cells were also used to test the cytotoxicity by determining the cell viability in the culture based on the quantitation of ATP present. The cytotoxicity was measured in the same assay well of MMP assay.
Tox21 Assay Protocol Summary: 2,000 HepG2 cells in 5 uL/well were dispensed into black, clear-bottom 1536-well plates using a Multidrop Combi (Thermo Scientific) dispenser. The assay plates were incubated for an overnight at 37 C to allow cells to attach to the wells, followed by the transfer of 23 nL compound or DMSO vehicle by a pin tool (Kalypsys). The plates were incubated for 1 hr at 37 C and 5% CO2, followed by the addition of 5 uL of 2X m-MPI dye into each well using Flying Reagent Dispenser (Aurora Discovery) and then CellTiter-Glo reagent was added at 4 uL/well and incubated 30 min at room temperature. Then luminescence intensity was quantified on a ViewLux CCD-based plate reader.

[4] = qHTS assay for small molecule disruptors of the mitochondrial membrane potential (AID 720635); conditions: HepG2 mitochondrial membrane potential, Mito-MPS dye ratio; series mostly up to 83.2 µM; further: potency means the concentration at half of the fitted maximal effect
Method in brief: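 Mitochondrial membrane potential tracked with Mito-MPS dye, red aggregates (ex 540/em 590 nm) against green monomers (ex 490/em 535 nm). Compound treatment 1 hr at 37C, dye 30 min in HepG2.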

[5] = qHTS assay to test for compound auto fluorescence at 590 nm (red) in HepG2 cells (AID 720674); conditions: HepG2 autofluorescence, red 540/590 nm, 1 h
Source text: U.S. Tox21 Program National Center for Advancing Translational Sciences [NCATS] NIH Chemical Genomics Center [NCGC] U.S. Environmental Protection Agency [EPA] National Institutes of Environmental Health Sciences [NIEHS] National Toxicology Program [NTP] U.S. Food and Drug Administration [FDA] Tox21 Assay Overview: Compound auto fluorescence often interferes with screening of the compound library against various biological targets and signaling pathways. Some of these compounds may have fluorophoric properties. Such properties may interfere with the assay outputs resulting in false positives and/or negatives. To decrease such complications and ensure the compound activities are relevant in terms of biological response, the Tox21 10K compound library was screened for auto fluorescence. From the fluorophores used as reporter signals in our screening assays, the auto fluorescence equivalencies of compounds against three fluorophores have been evaluated: Triamterene, Fluorescein and Rose Bengal sodium for blue, green and red fluorescence, respectively. The fluorescence intensities were measured using Excitation/Emission wavelengths at 405/460nm, 485/535nm and 540/590nm for blue, green and red labels, respectively. This assay includes the red fluorescence data.
Tox21 Assay Protocol Summary: 2,000 HepG2 cells in 5 uL of culture medium (MEM containing 10% FBS) per well were dispensed into black wall/clear bottom 1536-well plates using a Multidrop Combi Dispenser (ThermoFisher Scientific, Waltham, MA). The assay plates were incubated overnight at 37 C to allow cell attachment to the well bottom, followed by the transfer of 23 nL compound or DMSO vehicle by a pintool work station (Kalypsys , San Diego, CA). After the assay plates were incubated for 1 hr at 37 C and 5% CO2, fluorescence intensities in the assay plates were measured by an Envision (PerkinElmer, Shelton, CT) plate reader using three labels for measuring blue, green and red fluorescence at […] 460, 535 and 590 nm respectively.

[6] = qHTS assay to test for compound auto fluorescence at 535 nm (green) in HepG2 cells (AID 720675); conditions: green autofluorescence 485/535 nm, 1 h
[7] = qHTS assay to test for compound auto fluorescence at 460 nm (blue) in HEK293 cells (AID 720678); conditions: blue autofluorescence 405/460 nm
Method in brief: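 Blue-channel (Ex/Em 405/460 nm) intensity measured in HEK293 cultures after overnight compound exposure at 37C; signal expressed relative to triamterene. Cells plated 2,000 per well in 10% dialyzed FBS medium and allowed 4-5 hr to attach.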

[8] = qHTS assay to test for compound auto fluorescence at 590 nm (red) in HEK293 cells (AID 720679); conditions: red autofluorescence 540/590 nm
Source text: National Center for Advancing Translational Sciences [NCATS]
NIH Chemical Genomics Center [NCGC]
U.S. Environmental Protection Agency [EPA]
National Institutes of Environmental Health Sciences [NIEHS]
National Toxicology Program [NTP]
U.S. Food and Drug Administration [FDA]
Compound auto fluorescence often interferes with screening of the compound library against various biological targets and signaling pathways. Some of these compounds may have fluorophoric properties. Such properties may interfere with the assay outputs resulting in false positives and/or negatives. To decrease such complications and ensure the compound activities are relevant in terms of biological response, the Tox21 10K compound library was screened for auto fluorescence.
From the fluorophores used as reporter signals in our screening assays, the auto fluorescence equivalencies of compounds against three fluorophores have been evaluated: Triamterene, Fluorescein and Rose Bengal sodium for blue, green and red fluorescence, respectively. The fluorescence intensities were measured using Excitation/Emission wavelengths at 405/460nm, 485/535nm and 540/590nm for blue, green and red labels, respectively. This assay includes the red fluorescence data.
Tox21 Assay Protocol Summary:
2,000 HEK293 cells in 5 uL of culture medium containing 10% dialyzed FBS per well were dispensed into black wall/clear bottom 1536-well plates using a Multidrop Combi Dispenser (Thermo Scientific). The assay plates were incubated for 4-5 hr at 37C to allow cell attachment to the well bottom, followed by the transfer of 23 nL compound or DMSO vehicle by a pintool work station (Kalypsys, San Diego, CA). After the assay plates were incubated overnight at 37C and 5% CO2, fluorescence intensities in the assay plates were measured by an Envision (PerkinElmer, Shelton, CT) plate reader using three labels for measuring blue, green and red fluorescence at […] 460, 535 and 590nm respectively.

[9] = qHTS assay for small molecule agonists of the p53 signaling pathway (AID 651631; calls by dose curve; further: nearly all actives have a fitted effect of over 15% in size); conditions: HCT-116 p53RE-bla reporter, beta-lactamase FRET ratio, 16 h
Method in brief: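 Agonist mode screen using a stably integrated beta-lactamase gene under p53 response elements in HCT-116 cells. Compound exposure lasts 16 h at 37 °C; fluorescence intensity is measured following 2 h FRET substrate loading.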

[10] = qHTS assay for small molecules that induce genotoxicity in human embryonic kidney cells expressing luciferase-tagged ATAD5 (AID 651632); conditions: HEK293T ATAD5-luciferase induction, 16 h; further: nearly all actives have a fitted effect of over 15% in size
Method in brief: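 Luminescence read-out: after 16 hr compound exposure at 37C, ATAD5-luciferase HEK293T cells received Amplite, 30 min RT, then CCD imaging. A rise in signal marks genotoxic stress.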
On the % scale 0 is the no-effect control and ±100 the full control effect.

SMILES	activity change, negative = cytotoxicity ([1]; at 83.3 µM (top of the series))	activity, negative = cytotoxicity ([2]; at 83.3 µM (top of the series))	activity change, negative = cytotoxicity ([3]; at 83.2 µM (top of the series))	Potency [4]	fluorescence, relative to Rose Bengal ([5]; at 91.3 µM (top of the series))	fluorescence, % of fluorescein control ([6]; at 91.3 µM (top of the series))	fluorescence, % of triamterene ([7]; at 91.3 µM (top of the series))	fluorescence, % of fluorescent control ([8]; at 91.3 µM (top of the series))	activity, negative = cytotoxicity ([2]; at 95.3 µM (top of the series))	fluorescence, relative to Rose Bengal ([5]; at 95.7 µM (top of the series))	fluorescence, % of fluorescein control ([6]; at 95.7 µM (top of the series))	fluorescence, % of triamterene ([7]; at 95.7 µM (top of the series))	fluorescence, % of fluorescent control ([8]; at 95.7 µM (top of the series))	activation ([9]; at 73.3 µM (top of the series))	activation ([9]; at 95.1 µM (top of the series))	activation ([10]; at 83.3 µM (top of the series))	activation ([10]; at 95.3 µM (top of the series))	activity change, negative = cytotoxicity ([1]; at 95.3 µM (top of the series))	activity change, negative = cytotoxicity ([3]; at 95.3 µM (top of the series))
CCOP(=S)(Cl)OCC	inactive: -22.5%	inactive: -9.03%	inactive: 14.8%	active: 26.9 µM	inactive: -0.0159%	inactive: -0.0163%	inactive: -0.23%	inactive: 0.406%											
O=[N+]([O-])c1ccccc1[N+](=O)[O-]		inactive: -8.6%	inactive: -18.1%	active: 44.4 µM	inactive: 0.027%	inactive: -0.0343%	inactive: -0.169%	inactive: -0.0503%	inactive: -20.8%	inactive: -0.0216%	inactive: -0.0218%	inactive: -0.0702%	inactive: 0.141%						
ClCCOP(OCCCl)OCCCl	inactive: 12.8%	inactive: 10%	inactive: -1.69%	inactive	inactive: 0.0831% and inactive: 0.133%	inactive: -0.0332% and inactive: 0.0097%	inactive: -0.0249% and inactive: -0.0305%	inactive: 0.288% and inactive: -0.0931%	inactive: -5.75%					inactive: -3.89%	inactive: -1.61%	inactive: 2.24%	inactive: 1.15%	inactive: 4.13%	inactive: 6.16%
CCOP(=O)(Cl)Cl	inactive: -2.85% and inactive: 13.8%	inactive: -6.03% and inactive: 21.5%	inactive: 6.15% and inactive: 5.07%	inactive	inactive: -0.0426% and inactive: 0.0669%	inactive: 0.0235% and inactive: -0.0109%	inactive: 0.0452% and inactive: 0.0393%	inactive: 0.578% and inactive: 0.0927%						inactive: -1.88% and inactive: -0.706%		inactive: -2.23% and inactive: 2.65%			

Reference: PubChem BioAssay (Tox21)
